{"sequences": {"note": "Chains of the proteins cited; added tags and fusions are not shown. Residues count along the entry.", "UniProt P14416, 1-414 isoform P14416-2": "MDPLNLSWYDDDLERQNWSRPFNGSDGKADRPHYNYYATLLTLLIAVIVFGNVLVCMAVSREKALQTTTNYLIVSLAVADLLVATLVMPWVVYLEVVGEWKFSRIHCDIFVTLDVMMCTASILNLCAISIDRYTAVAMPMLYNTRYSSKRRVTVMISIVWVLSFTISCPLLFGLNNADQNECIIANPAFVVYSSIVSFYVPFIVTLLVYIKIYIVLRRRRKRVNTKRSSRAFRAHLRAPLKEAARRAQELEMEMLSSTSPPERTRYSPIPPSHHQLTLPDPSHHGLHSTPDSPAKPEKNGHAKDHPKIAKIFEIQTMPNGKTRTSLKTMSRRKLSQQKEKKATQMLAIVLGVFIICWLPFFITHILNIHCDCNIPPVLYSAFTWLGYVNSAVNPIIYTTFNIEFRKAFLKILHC"}, "source": "paper PMC5601007", "about": "“Synthesis, Molecular Properties Estimations, and Dual Dopamine D2 and D3 Receptor Activities of Benzothiazole-Based Ligands” (Frontiers in Chemistry, 2017)", "origin": "cited, not measured here", "biological_target": "hD2SR (Homo sapiens, UniProt P14416)", "conditions": "calculated from literature Ki; ref Sukalovic et al., 2005; cited from earlier work"}
{"smiles": "COc1ccccc1N1CCN(CCCCNC(=O)c2ccc3ccccc3c2)CC1", "note": "[Compound 1, BP-897]", "values": [{"measurement": "hD2SR affinity pKi", "result": 7.2}]}
